# pKi: −log10 of the molar value. Counter-ions that a name gives are not always drawn.
# Sequences of proteins named here, by UniProt entry; tags and fusion partners are left off.
# UniProt Q60492, whole entry: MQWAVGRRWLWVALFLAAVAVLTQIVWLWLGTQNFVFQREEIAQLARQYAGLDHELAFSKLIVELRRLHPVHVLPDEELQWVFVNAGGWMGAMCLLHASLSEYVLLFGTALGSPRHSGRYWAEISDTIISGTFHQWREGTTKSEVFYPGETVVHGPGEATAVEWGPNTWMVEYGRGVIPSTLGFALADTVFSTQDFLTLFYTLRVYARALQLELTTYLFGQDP
# Molecular target: sigma1-receptor (Cavia porcellus (Guinea pig), UniProt Q60492)
# Experiment: sigma-1 receptor binding assay, [3H]-(+)-pentazocine, brain membranes
# Conditions: [3H]-(+)-pentazocine 5.0 nM, 150 min at 37° C., read-out: Ki (σ1)
# Method: (w/v) of Tris-HCl 50 mM 0.32 M sucrose, pH 7.4, with a Kinematica Polytron PT 3000 at 15000 r.p.m. for 30 s.
# Guinea pig brains were homogenized in 10 vols. (w/v) of Tris-HCl 50 mM 0.32 M sucrose, pH 7.4, with a Kinematica Polytron PT 3000 at 15000 r.p.m. for 30 s. The homogenate was centrifuged at 1000 g for 10 min at 4° C. and the supernatants collected and centrifuged again at 48000 g for 15 min at 4° C. The pellet was resuspended in 10 volumes of Tris-HCl buffer (50 mM, pH 7.4), incubated at 37° C. for 30 min, and centrifuged at 48000 g for 20 min at 4° C. Following this, the pellet was re-suspended in fresh Tris-HCl buffer (50 mM, pH 7.4) and stored on ice until use.
# The radioligand used was [^3H]-(+)-pentazocine at 5.0 nM and the final volume was 200 μl. The incubation was initiated with the addition of 100 μl of membrane at a final tissue concentration of approximately 5 mg tissue net weight/mL and the incubation time was 150 m. at 37° C. After incubation, the membranes were collected onto pretreated glass fiber filterplate (MultiScreen-FC, Millipore), with polyethylenimine 0.1%. The filters were washed two times with 200 μl of washing buffer (50 mM Tris Cl, pH=7.4) and then 25 μl of Ecoscint H liquid scintillation cocktail were added. Microplates were allowed to set for several hours and then quantified by liquid scintillation spectrophotometry (1450 Microbeta, Wallac). Nonspecific binding was determined with 1 μM haloperidol.
row,SMILES,pKi
1,"CCN(CCN1CCOCC1)c1cn(C23CC4CC(CC(C4)C2)C3)nn1 [Example 64, 1-(1-adamantyl)-N-ethyl-N-(2-morpholinoethyl)-1H-1,2,3-triazol-4-amine hydrochloride]",6.96
2,"CCN(CCN1CCOCC1)c1cn(-c2ccc(Cl)c(Cl)c2)nn1 [Example 65, 1-(3,4-dichlorophenyl)-N-ethyl-N-(2-morpholinoethyl)-1H-1,2,3-triazol-4-amine hydrochloride]",6.67
3,"c1ccc(Cn2cc(NCCN3CCCC3)nn2)cc1 [Example 19, 1-benzyl-N-(2-(pyrrolidin-1-yl)ethyl)-1H-1,2,3-triazol-4-amine hydrochloride]",6.67
4,"CC(=O)N1CCN(CCNc2cn(-c3ccc(Cl)c(Cl)c3)nn2)CC1 [Example 51, 1-(4-(2-(1-(3,4-dichlorophenyl)-1H-1,2,3-triazol-4-ylamino)ethyl)piperazin-1-yl)ethanone hydrochloride]",6.56
5,"Fc1ccc(Cn2cc(NCCN3CCN(C4CCCCC4)CC3)nn2)cc1 [Example 34, N-(2-(4-cyclohexylpiperazin-1-yl)ethyl)-1-(4-fluorobenzyl)-1H-1,2,3-triazol-4-amine]",6.88

# The next compounds have a higher pKi than those just listed; values first:
row,pKi,SMILES
1,7.15,"CC(=O)N(CCN1CCOCC1)c1cn(C23CC4CC(CC(C4)C2)C3)nn1 [Example 57, N-(1-(1-adamantyl)-1H-1,2,3-triazol-4-yl)-N-(2-morpholinoethyl)acetamide hydrochloride]"
2,7.20,"c1c(NCCN2CCN(C3CCCCC3)CC2)nnn1C1CCCCC1 [Example 30, 1-cyclohexyl-N-(2-(4-cyclohexylpiperazin-1-yl)ethyl)-1H-1,2,3-triazol-4-amine hydrochloride]"
3,7.46,"Clc1ccc(Cn2cc(NCCCN3CCCCC3)nn2)cc1Cl [Example 10, 1-(3,4-dichlorobenzyl)-N-(3-(piperidin-1-yl)propyl)-1H-1,2,3-triazol-4-amine hydrochloride]"
4,7.97,"c1c(NCCN2CCCCCC2)nnn1C12CC3CC(CC(C3)C1)C2 [Example 14, N-(2-(azepan-1-yl)ethyl)-1-(1-adamantyl)-1H-1,2,3-triazol-4-amine hydrochloride]"

# From patent US9611229B2, “1,2,3-triazole-4-amine derivatives for the treatment of sigma receptor related diseases and disorders” (LABORATORIOS DEL DR. ESTEVE S.A., priority 2013, dated 2017)
